This is a selection; strong and weak results do not stand in their true shares. Records with an inconclusive call do not appear. Calls of active or inactive are those of the source. Calls follow the shape of the dose curve; as a rule, active = well fitted curve in the direction sought with a large enough effect; inconclusive = small, poorly fitted or top-dose-only effect, or another doubt; inactive = no such curve, though single readings can be large; an effect the other way counts as inactive or inconclusive.
Key:
[1] = Inducers of the Endoplasmic Reticulum Stress Response (ERSR) in human glioma: Validation (AID 504836); conditions: human glioma cells, ER stress response reporter; at 38.3 µM (top of the series); also: 0% is about no effect
In short: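 ERSR induction read as luciferase luminescence (Bright-Glo, 10 min at room temperature) in stably transfected human U87-MG glioma cells exposed to compounds for 16 h, using GRP78 as sensor.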

Chains of the proteins cited; added tags and fusions are not shown. Lines headed by an entry give the natural chain unless they say otherwise; changes in a name come on top.
UniProt O94782: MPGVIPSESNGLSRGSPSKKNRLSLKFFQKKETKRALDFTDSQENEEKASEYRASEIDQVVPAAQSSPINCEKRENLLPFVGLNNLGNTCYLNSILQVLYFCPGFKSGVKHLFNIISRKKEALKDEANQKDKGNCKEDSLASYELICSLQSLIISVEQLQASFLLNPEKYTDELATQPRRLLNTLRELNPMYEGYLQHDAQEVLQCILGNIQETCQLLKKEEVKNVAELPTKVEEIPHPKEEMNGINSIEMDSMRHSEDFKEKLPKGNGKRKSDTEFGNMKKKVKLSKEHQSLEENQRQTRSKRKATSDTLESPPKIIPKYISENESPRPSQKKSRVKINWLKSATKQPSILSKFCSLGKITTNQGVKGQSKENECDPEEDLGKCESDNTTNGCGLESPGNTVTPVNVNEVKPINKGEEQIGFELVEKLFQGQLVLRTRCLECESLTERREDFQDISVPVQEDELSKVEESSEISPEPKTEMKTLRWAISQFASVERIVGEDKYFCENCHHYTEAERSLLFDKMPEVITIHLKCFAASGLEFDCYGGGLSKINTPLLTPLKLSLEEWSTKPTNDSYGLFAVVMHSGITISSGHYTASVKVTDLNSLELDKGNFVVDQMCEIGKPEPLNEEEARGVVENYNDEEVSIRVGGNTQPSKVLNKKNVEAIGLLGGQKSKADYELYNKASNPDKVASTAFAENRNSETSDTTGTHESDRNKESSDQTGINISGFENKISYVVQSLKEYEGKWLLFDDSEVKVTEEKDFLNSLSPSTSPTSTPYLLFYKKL
UniProt O94925: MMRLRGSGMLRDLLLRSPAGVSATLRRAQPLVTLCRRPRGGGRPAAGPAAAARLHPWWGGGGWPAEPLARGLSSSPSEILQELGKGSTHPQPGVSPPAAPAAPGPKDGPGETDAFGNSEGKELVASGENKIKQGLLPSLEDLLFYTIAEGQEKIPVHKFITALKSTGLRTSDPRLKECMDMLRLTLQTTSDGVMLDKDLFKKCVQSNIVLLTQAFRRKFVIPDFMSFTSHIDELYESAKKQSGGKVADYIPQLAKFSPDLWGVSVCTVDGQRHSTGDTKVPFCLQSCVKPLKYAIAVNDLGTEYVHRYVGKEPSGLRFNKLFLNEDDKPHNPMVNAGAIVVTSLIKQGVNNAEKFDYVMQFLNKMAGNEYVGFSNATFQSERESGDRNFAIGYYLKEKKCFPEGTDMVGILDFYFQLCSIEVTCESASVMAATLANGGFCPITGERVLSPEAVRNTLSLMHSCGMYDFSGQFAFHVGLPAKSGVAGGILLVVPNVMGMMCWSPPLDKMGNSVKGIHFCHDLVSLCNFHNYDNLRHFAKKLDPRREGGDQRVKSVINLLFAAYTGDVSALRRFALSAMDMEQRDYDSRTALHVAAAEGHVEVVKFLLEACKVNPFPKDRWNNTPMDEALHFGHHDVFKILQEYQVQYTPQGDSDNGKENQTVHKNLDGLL
UniProt P43220, whole entry, looked up: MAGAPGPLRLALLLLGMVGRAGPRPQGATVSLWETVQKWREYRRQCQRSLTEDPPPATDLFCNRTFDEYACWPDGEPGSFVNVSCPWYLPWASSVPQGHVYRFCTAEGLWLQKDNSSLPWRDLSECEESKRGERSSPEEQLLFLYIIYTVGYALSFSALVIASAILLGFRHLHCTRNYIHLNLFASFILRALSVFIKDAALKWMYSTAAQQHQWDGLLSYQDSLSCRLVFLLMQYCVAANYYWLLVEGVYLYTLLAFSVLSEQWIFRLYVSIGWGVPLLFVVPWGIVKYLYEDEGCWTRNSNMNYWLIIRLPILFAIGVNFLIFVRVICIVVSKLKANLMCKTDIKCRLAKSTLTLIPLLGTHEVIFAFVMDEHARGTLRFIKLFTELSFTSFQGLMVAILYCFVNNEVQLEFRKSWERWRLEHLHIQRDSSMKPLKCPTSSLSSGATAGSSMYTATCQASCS
UniProt P15289: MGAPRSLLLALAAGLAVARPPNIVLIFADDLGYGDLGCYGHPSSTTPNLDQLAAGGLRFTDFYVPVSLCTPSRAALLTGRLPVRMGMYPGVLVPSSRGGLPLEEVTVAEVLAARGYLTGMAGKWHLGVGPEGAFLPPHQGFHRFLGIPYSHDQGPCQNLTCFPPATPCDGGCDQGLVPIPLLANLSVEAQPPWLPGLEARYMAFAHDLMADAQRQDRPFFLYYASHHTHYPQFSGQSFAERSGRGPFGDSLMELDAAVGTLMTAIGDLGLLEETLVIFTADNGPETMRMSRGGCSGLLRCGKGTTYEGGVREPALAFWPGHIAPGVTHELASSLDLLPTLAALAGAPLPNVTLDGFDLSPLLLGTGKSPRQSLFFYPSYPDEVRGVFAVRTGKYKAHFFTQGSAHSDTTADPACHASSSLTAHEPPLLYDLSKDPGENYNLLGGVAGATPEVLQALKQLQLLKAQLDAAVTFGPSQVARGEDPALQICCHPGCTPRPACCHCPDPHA
UniProt P35557, whole entry, looked up: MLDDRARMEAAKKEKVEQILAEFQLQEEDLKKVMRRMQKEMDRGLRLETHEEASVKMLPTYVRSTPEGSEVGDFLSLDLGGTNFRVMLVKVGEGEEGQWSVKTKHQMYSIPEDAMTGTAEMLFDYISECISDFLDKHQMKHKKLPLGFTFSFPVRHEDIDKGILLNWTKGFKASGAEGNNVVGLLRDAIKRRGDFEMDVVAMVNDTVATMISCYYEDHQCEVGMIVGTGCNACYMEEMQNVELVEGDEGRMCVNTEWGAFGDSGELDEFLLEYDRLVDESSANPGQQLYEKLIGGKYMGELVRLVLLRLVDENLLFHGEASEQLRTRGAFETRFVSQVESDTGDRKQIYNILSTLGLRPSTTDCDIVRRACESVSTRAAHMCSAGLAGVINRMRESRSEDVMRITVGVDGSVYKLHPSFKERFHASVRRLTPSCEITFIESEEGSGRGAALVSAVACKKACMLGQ
UniProt Q14397: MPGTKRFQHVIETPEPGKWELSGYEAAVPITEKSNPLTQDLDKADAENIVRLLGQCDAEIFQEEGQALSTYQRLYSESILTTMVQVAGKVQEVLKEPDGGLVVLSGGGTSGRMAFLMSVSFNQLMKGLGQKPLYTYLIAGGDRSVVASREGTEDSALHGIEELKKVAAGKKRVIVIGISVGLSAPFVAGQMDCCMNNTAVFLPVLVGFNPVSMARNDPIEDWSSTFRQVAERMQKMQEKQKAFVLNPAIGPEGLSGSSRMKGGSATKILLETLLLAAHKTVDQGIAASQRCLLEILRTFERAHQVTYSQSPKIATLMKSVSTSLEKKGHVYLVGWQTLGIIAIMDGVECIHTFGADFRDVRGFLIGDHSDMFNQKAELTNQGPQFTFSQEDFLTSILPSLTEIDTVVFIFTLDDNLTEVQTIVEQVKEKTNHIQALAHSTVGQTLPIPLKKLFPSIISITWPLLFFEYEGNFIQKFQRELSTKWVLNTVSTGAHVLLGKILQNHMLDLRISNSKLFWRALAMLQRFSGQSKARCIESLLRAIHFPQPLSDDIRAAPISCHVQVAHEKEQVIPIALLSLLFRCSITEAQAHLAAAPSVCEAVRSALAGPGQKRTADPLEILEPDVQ

[2] = target: Ubiquitin carboxyl-terminal hydrolase 1 (Homo sapiens) (UniProt O94782); test: Inhibitors of USP1/UAF1: Pilot qHTS (AID 504865); conditions: purified USP1/UAF1, Ub-rhodamine cleavage fluorescence; at 114 µM (top of the series);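 also: rhodamine fluorescence freed from ubiquitin-rhodamine substrate followed over time; top concentration of the series differs between compounds; % is scaled to controls: 0 for no effect and ±100 for the full control effect; nearly all actives have a fitted effect of over 35% in size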
[3] = qHTS for Inhibitors of ATXN expression: Validation of Cytotoxic Assay (AID 588349); conditions: cytotoxicity counter-screen for ATXN expression inhibitors, cell viability; at 57.1 µM (top of the series); also: % is scaled to controls: 0 for no effect and ±100 for the full control effect
In short: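 HEK293 cells treated with titrated compound for 72 hr at 37 degrees C; viability read as intracellular ATP by CellTiter Glo luminescence.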

[4] = target: Glutaminase kidney isoform, mitochondrial (Homo sapiens) (UniProt O94925); test: qHTS for Inhibitors of Glutaminase (GLS): LOPAC Validation (AID 624146);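 also: glutamate product detected by oxidase and peroxidase coupled Amplex red fluorescence gain; % is scaled to controls: 0 for no effect and ±100 for the full control effect; nearly all actives have a fitted effect of over 60% in size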
In short: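 Assay buffer: 45 mM KH2PO4 pH 8.2, 0.02% Tween-20. hKGA acts on L-glutamine (1 mM solution added); product glutamate is reported by an oxidase/peroxidase Amplex Red coupling, with fluorescence taken at baseline and 30 min.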

[5] = target: Glucagon-like peptide 1 receptor (Homo sapiens) (UniProt P43220); test: qHTS of GLP-1 Receptor Agonists: LOPAC Validation (AID 624148); conditions: GLP-1R agonist cell assay; at 46.1 µM (top of the series);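 also: luminescence from a luciferase reporter switched on by cAMP; 0% is about no effect; higher luminescence signal means agonism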
In short: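 Agonism scored as increased luciferase luminescence driven by cAMP in HEK293 clones carrying GLP-1R. Cells settled 12 hours, received compound for 4-6 hr at 37 deg C, 5% CO2, and were read after 12 min detection reagent at RT.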

[6] = qHTS of Nrf2 Activators: LOPAC Validation (AID 624149); conditions: Nrf2/ARE reporter cell assay; at 46.1 µM (top of the series); also: 0% is about no effect
In short: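 AREc32_Fluc cells, 1000/well in OPTI-MEM with 5% FBS, grown overnight, then exposed to compounds for 24 hr at 37 deg C, 5% CO2. ARE-driven firefly luciferase read by Steady-Glo luminescence after 30 min at RT.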

[7] = HTS Assay for Allosteric Antagonists of the Human D2 Dopamine Receptor: Hit Validation in HTRF (AID 624455); conditions: D2 receptor cells, HTRF cAMP read-out, antagonist mode; at 46.1 µM (top of the series);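 also: stable D1 dopamine receptor cell line scored for blocking the D1 response; % is scaled to controls: 0 for no effect and ±100 for the full control effect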
In short: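 Hit validation in cells stably expressing the D1 dopamine receptor, run in HTRF format. Compounds were tested for their ability to inhibit the D1-mediated response.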

[8] = target: Arylsulfatase A (Homo sapiens) (UniProt P15289); test: qHTS screen for enhancers of Arylsulfatase A (ASA1): LOPAC Validation Assay (AID 720538); conditions: ASA enzyme activity, LOPAC qHTS enhancer assay; activity change, positive = activation: at 57.5 µM (top of the series); also: 0% is about no effect
In short: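 MLD patient fibroblasts (SV40, ASA-I179S), 1536-well; adhere 6 hrs; cpd 48h, 37 degree C, 5% CO2; pNCS 0.5mM final in lysis buffer, 14h RT; stop 1N NaOH final; fluor. Ex525/Em598.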

[9] = qHTS for compounds that reverse cellular toxicity of Amyloid beta (A-beta) peptide in yeast: LOPAC Validation Assay (AID 720559); conditions: yeast expressing A-beta; at 46.1 µM (top of the series);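 also: plate controls were DMSO for no effect and equimolar ferric chloride plus clioquinol rescue for full effect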
In short: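 Medium dispensed, compounds pinned, A-beta yeast suspension added; plates held at 30 C for 48 hr; absorbance measured at 600 nm to gauge growth; values scaled between DMSO and FeCl3/clioquinol (equimolar) controls.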

[10] = qHTS for Activators of Parkin Expression: LOPAC Validation Assay (FLuc Reporter) (AID 720573); conditions: Cell line, PRKN promoter firefly luciferase reporter, vehicle wells = 0, positive control = 100%; at 46.1 µM (top of the series)
In short: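 Cells seeded, 24 h; compounds pinned, 7-pt dose response; 24 h at 37 C/5% CO2; volume reduced; FLuc reagent 10 min RT; luminescence read. Normalization: DMSO = 0, positive control = 100%.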

[11] = target: T1, Hexokinase-4 (Homo sapiens) + Glucokinase regulatory protein (Homo sapiens) (UniProt P35557+Q14397); test: qHTS assay for inhibitors of recombinant human GCK-GKRP interaction: Diaphorase-coupled assay (AID 743205); conditions: G6PDH/diaphorase resorufin fluorescence; at 57.5 µM (top of the series)
In short: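 25 mM Hepes pH 7.6, 5 mM glucose, 0.4 mM ATP, 4 U/ml G6PDH; 10 nM each GST-GCK/FLAG-GKRP. Kinetic fluorescence read, 1/min × 30 min. Normalized: DMSO ± enzyme = max/min.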

[12] = target: T1, Hexokinase-4 (Homo sapiens) + Glucokinase regulatory protein (Homo sapiens); test: qHTS assay for inhibitors of recombinant human GCK-GKRP interaction: ADP-Glo assay (AID 743206); conditions: ADP-Glo luminescence, 60 min, 0% = vehicle-only wells with enzyme present; at 76.9 µM (top of the series);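 also: plate controls were DMSO plus enzyme for no effect and no enzyme for full effect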
In short: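 GST-GCK and FLAG-GKRP (15 nM each in the dispensed mix, with 2 uM S6P) react with 0.4 mM ATP and 5 mM glucose (final) in Hepes pH 7.6 for 60 min at room temperature. ADP is measured by ADP-Glo luminescence.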

[13] = target: T1, Hexokinase-4 (Homo sapiens) + Glucokinase regulatory protein (Homo sapiens); test: qHTS assay for inhibitors of recombinant human GCK-GKRP interaction: HTRF assay (AID 743207); conditions: recombinant GCK-GKRP HTRF binding, 60 min, with sorbitol-6-phosphate; at 57.5 µM (top of the series);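 also: 0% = DMSO with GCK present and -100% = DMSO wells lacking GCK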
In short: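 5 nM GST-GCK + 5 nM FLAG-GKRP + 2 uM S6P, pH 7.1 buffer (25 mM Hepes, 2 mM MgCl2, 25 mM KCl, 1 mM DTT, Tween/BSA); pin-transferred cpd; anti-FLAG XL665/anti-GST K; 60 min RT; HTRF.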

[14] = qHTS Assay for Identifying Gametocytocidal Compounds (AID 743244);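 also: % is scaled to controls: 0 for no effect and ±100 for the full control effect; actives lower the fluorescent signal which means gametocytes are killed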; conditions: P. falciparum 3D7 stage III-V gametocytes, alamarBlue, 72 h; max response: stronger effect = lower value

CN(C(=O)Cc1ccc(Cl)c(Cl)c1)[C@@H]1CCCC[C@@H]1N1CCCC1
inactive: activation [1] 0.0322% | activity change, negative = inhibition [2] 1.6% | activity change, negative = cytotoxicity [3] -25.9% | Potency [4] | activation [5] -1.25% | activation [6] -1.6% | activity, negative = inhibition [7] -3.08% | activity change, positive = activation [8] -1.12% | growth rescue, positive = activation [9] -6.16% | activation [10] 3.41% | activity change, positive = activation [11] -6.23% | activity, positive = activation [12] -2.38% | activity change, negative = inhibition [13] -1.48% | max response [14] 16.7%

Source: PubChem BioAssay (NCATS)
